Experimental data from patent US20220088102A1, “CROTON LECHLERI COMPOSITIONS AND THEIR USE IN THE TREATMENT OF CYSTIC FIBROSIS” (priority 2020, published 2022).

Assays:
[1] = Log P analysis (partition coefficient, water and n-Octanol)
[2] = In vitro Permeation Test (IVPT), Franz diffusion cell, Strat-M membranes
[3] = component of AB-101, 100%, Batch 0
[4] = component of AB-101, 100%, Batch 1
[5] = component of AB-101, 100%, Batch 2
[6] = component of AB-101, 100%, Batch X
[7] = component of AB-101 Lyophilized & Resuspended, Batch 0
[8] = component of AB-101 Lyophilized & Resuspended, Batch 1
[9] = component of AB-101 Lyophilized & Resuspended, Batch 2
[10] = component of AB-101 Lyophilized & Resuspended, Batch X

Row | Substance | LogP [1, 3] | LogP [1, 4] | LogP [1, 5] | LogP [1, 6] | LogP [1, 7] | LogP [1, 8] | LogP [1, 9] | LogP [1, 10] | Flux (J) ([2]; component permeating from AB-101 100% Lot 1) [ug/cm^2/hr] | Flux (J) ([2]; component permeating from AB-101 100% Lot X) [ug/cm^2/hr]
1 | catechin | 0.27 | 0.29 | 0.59 | −0.14 | 0.39 | 0.23 | 0.07 | −0.13 | 8.82 | 1.53
2 | epicatechin | −0.09 | −0.02 | 0.13 | 0.07 | 0.02 | 0.02 | −0.17 | 0.09 | – | –
